## Apparent affinities of Ab-91 variants for a coronavirus HR2 peptide

Data: MIT Lincoln Laboratory AlphaSeq set, Engelhart et al. 2022, doi:10.1038/s41597-022-01779-4, as distributed in FLAb.

Target: peptide PDVDLGDISGINAS, taken from heptad repeat 2 (HR2) of SARS-CoV-2 spike.

The variants keep the light chain, the linker and the frameworks of Ab-91 (scFv order VL, the linker GGGGSGGGGSGGGGS, VH).
VL: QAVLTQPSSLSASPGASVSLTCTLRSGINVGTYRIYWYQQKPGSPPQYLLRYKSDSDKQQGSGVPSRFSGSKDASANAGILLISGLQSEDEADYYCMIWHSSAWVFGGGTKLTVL
VH: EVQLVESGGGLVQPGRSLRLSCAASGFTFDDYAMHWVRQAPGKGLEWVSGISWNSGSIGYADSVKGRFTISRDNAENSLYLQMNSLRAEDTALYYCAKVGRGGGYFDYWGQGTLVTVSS

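The starting antibody came from a phage panning campaign against this peptide. In library AAYL51, one, two or three CDR residues were substituted; doubles and triples were drawn at random. The scFvs were displayed on barcoded MATa yeast, the peptide on MATalpha yeast. The frequency of each diploid, read from paired DNA barcodes, reflects how well the two displayed proteins bind. Scores were corrected for input abundance and mapped to Kd with protein pairs of known affinity run in the same pool. There are three technical replicates.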

Variants are written as CDR1, CDR2 and CDR3 of the heavy chain (limits as in the source). Parent: GFTFDDYAMH, GISWNSGSIGYADSVK, VGRGGGYFDY. Every variant below is changed at S52 of the VH (sequential numbering). Each Kd is an estimate from the mating assay, the geometric mean of the replicates in which the pair was seen; lower is stronger. An entry "not detected" has no value in the source: the pair was not observed among the diploids in any replicate. This suggests poor binding but is not conclusive. Nonspecific signal, from three strains lacking the peptide, appeared in 21% of pairings of library AAYL51, centred on 34 µM (5% of these signals below 1.8 µM); values are not corrected for it. The control count says in how many pairings with the empty strains this scFv gave a signal. Parent in this assay: reference entry 72 nM, copy in this library 7.5 nM.

CDR-H1	CDR-H2	CDR-H3	Kd	replicates with signal	control signals
GFTFDDYAMH	GIVFNSGSIWYADSVK	VGRGGGYFDY	not detected	0 of 3	2 of 9
GFTFDDYAMH	GIGWNSGSIGYADSRK	VGRGGGYFDY	14 µM	2 of 3	2 of 9
GFTFDDYAMH	GITWNSGLIGYADSVK	VGRGGGYFDR	140 µM	1 of 3	1 of 9
GFTFGDYAMH	GIGWNSGLIGYADSVK	VGRGGGYFDY	2.5 nM	3 of 3	2 of 9
GFTFDDYNMH	GIKWNSGSIGYADSVK	VGRVGGYFDY	110 µM	1 of 3	1 of 9
GFTFDDYAMH	GIPWNSGSNGYASSVK	VGRGGGYFDY	170 µM	3 of 3	5 of 9
YFTFDDYAMH	GIWWESGSIGYADSVK	VGRGGGYFDY	12 µM	1 of 3	1 of 9
GFTFDDYAMH	GFLWNSGSIGYADSAK	VGRGGGYFDY	not detected	0 of 3	0 of 9
GFTFDDYAMH	GIPWNSGSIGYADSVK	VGRGGGYFDY	not detected	0 of 3	0 of 9
GFTFDDYAMV	GIFWNSGSIGYADSVL	VGRGGGYFDY	77 µM	2 of 3	5 of 9
GQTFDDYAMH	GIEWNSGSIGYADSVK	VGRGGGYFPY	5.0 µM	2 of 3	0 of 9
GFFFDDYAMH	GIKWNSGSIGYADSVK	VGRGGEYFDY	not detected	0 of 3	0 of 9
GFTFDHYAMH	GIGWNSGSIGYADSVK	VLRGGGYFDY	48 µM	2 of 3	1 of 9
GFTFDDYAMH	GIRWNSGSIPYADSVD	VGRGGGYFDY	8.1 µM	1 of 3	2 of 9
GFTYDDYAMH	GITWNSGSIFYADSVK	VGRGGGYFDY	not detected	0 of 3	1 of 9
GFTFVDYAMH	GILWNSGSIGYADSVK	VKRGGGYFDY	69 µM	1 of 3	1 of 9
GFTFDDYAMH	DIGWNSGSIGYADSVK	VGRGGGYFDV	not detected	0 of 3	0 of 9
GFTFDDYAMW	GIDWNSGSIGYADSVK	VGWGGGYFDY	13 µM	1 of 3	1 of 9
GFTFDDHAMH	GIYWNSGSIGYALSVK	VGRGGGYFDY	not detected	0 of 3	0 of 9
GFTFDMYAMH	GIGWNSGSIGYADSVK	VGGGGGYFDY	22 nM	3 of 3	2 of 9
GPTFDDYAMH	GIQWNSGSIGYADSVK	VGRGGGYFLY	not detected	0 of 3	2 of 9
GFTFDDYARH	GIFWNSGSIGYADSVK	VGRGGGYFDQ	420 µM	2 of 3	3 of 9
GFTFDDYAMH	GILWNSGLIGYADSVK	VGRGGGYFDY	58 µM	1 of 3	3 of 9
GFTFNDYAMH	GIHWNSGSIGYADSVK	VGRGGGYHDY	not detected	0 of 3	0 of 9
GFTFDDYAMS	DIAWNSGSIGYADSVK	VGRGGGYFDY	33 µM	3 of 3	2 of 9
GFTQDDYAMH	GIKWNSGSIGYADSVK	VGRGGGWFDY	not detected	0 of 3	0 of 9
GFTFDDYAMH	GIKCNSGSIGYADSVK	VGRGGGSFDY	160 µM	1 of 3	7 of 9
GFTFDDYAMH	GIMWNSGSIGYADSHK	VGRGEGYFDY	not detected	0 of 3	0 of 9
GFTFDDYAMH	GIYWNSGSIGYADSTK	VGRGGGYFDY	11 µM	1 of 3	1 of 9
GFTFDDYAMH	GITWNSGSLGYTDSVK	VGRGGGYFDY	690 µM	1 of 3	3 of 9
GFTFDDYAMH	GIQWNSGSEGYADSNK	VGRGGGYFDY	93 µM	3 of 3	5 of 9
GVTFDDYAMH	GIYWNSGSIGYADSVK	VGRGGEYFDY	86 µM	1 of 3	2 of 9
GFTFDFYAMH	GIYWNSGGIGYADSVK	VGRGGGYFDY	not detected	0 of 3	2 of 9
GFTFDDYAMH	GIGWNSGSIGYADVVK	VGRFGGYFDY	1.9 µM	3 of 3	4 of 9
GFTFDWYAMH	GIKWNSGSIGYADSVK	VGQGGGYFDY	340 µM	1 of 3	0 of 9
GFTFDDYAMH	GIQWNSGSIGYADSVK	VGRHGGYFDY	2.1 µM	3 of 3	7 of 9
GFRFDDYAMH	PIWWNSGSIGYADSVK	VGRGGGYFDY	not detected	0 of 3	0 of 9
GFTFDDYAMH	GIEWNSGSIGDADSVK	VGRGGGYDDY	110 µM	2 of 3	2 of 9
GRTFDDYAMH	GIAWNSGSIGYTDSVK	VGRGGGYFDY	520 nM	3 of 3	1 of 9
GFTFDDYAMH	GITWNSGSIGYADSVK	VGRGGGNFDY	33 µM	3 of 3	4 of 9
GFTFDDYAMM	GITWNSGSNGYADSVK	VGRGGGYFDY	7.5 µM	1 of 3	2 of 9
GFTFDDYGMH	GIPWNSGSIGYNDSVK	VGRGGGYFDY	not detected	0 of 3	0 of 9
GFKFDDYAMH	GIRWNSGSIGYADSVK	VGRGGDYFDY	4.1 µM	1 of 3	3 of 9
GFTFDDYAMH	GIWWNNGSIGYADSVK	VGRGGGYFDY	98 µM	1 of 3	2 of 9
GFTFDAYAMH	GINWNSGSSGYADSVK	VGRGGGYFDY	17 nM	3 of 3	2 of 9
GFTFDDTAMG	GILWNSGSIGYADSVK	VGRGGGYFDY	160 µM	3 of 3	7 of 9
GFTFDDYAMH	GIRWNSGSIGYADSVK	VGRGGGYFDD	not detected	0 of 3	0 of 9
GFTFDDYAMH	RIDWNSGSIGYADSVK	VGRRGGYFDY	7.8 µM	1 of 3	0 of 9
GFTFDDYAMH	GIDWNTGSIGYFDSVK	VGRGGGYFDY	not detected	0 of 3	0 of 9
GFTFDDYAMH	GIEWNSGSIGYADSVK	MGRGHGYFDY	not detected	0 of 3	3 of 9
GFTFDDYAMW	GIAWNSGSIGYADSVK	VGRVGGYFDY	84 µM	2 of 3	2 of 9
GFTLDDYAMH	GITWNSGSIGYADSVK	VGRGGGYFDY	80 µM	2 of 3	1 of 9
GFTFDDMAMH	GRRWNSGSIGYADSVK	VGRGGGYFDY	5.1 µM	1 of 3	2 of 9
GFTFDDYAMH	GIGWNSGSIPYADSVN	VGRGGGYFDY	not detected	0 of 3	0 of 9
GFTFDDYAMW	GIFWNSGSIGYADSVK	AGRGGGYFDY	not detected	0 of 3	0 of 9
GFTFDDYAMH	GIVWNSGSIGYADSVK	VGRGGGYFDY	28 µM	1 of 3	0 of 9
GFTFSDYAMH	GIKWNSGSIGYADSVK	VGRGGGYFAY	110 µM	3 of 3	6 of 9
GFIFDDYAMH	GIYWNSGSIGYADSVK	VGRGFGYFDY	not detected	0 of 3	0 of 9
GFTFDDYAMH	GIHWNSGSWGYADSVK	VGRGVGYFDY	180 µM	1 of 3	3 of 9
GFTFDDYAMH	GINWNSVSIGYADSVK	VGRGMGYFDY	72 nM	2 of 3	0 of 9
GFTFDDYAMH	GIPWNSGSIGYHDSVK	RGRGGGYFDY	not detected	0 of 3	1 of 9
GFTFVDYAMH	GIAWNTGSIGYADSVK	VGRGGGYFDY	850 nM	3 of 3	0 of 9
GFTFDDYAMH	GIFWNSGSIGYADSVK	GGHGGGYFDY	200 µM	1 of 3	1 of 9
GFTFDDYAMH	GIPWNSGNIGYADSVD	VGRGGGYFDY	not detected	0 of 3	0 of 9
DFTFDDYAMH	GIYWLSGSIGYADSVK	VGRGGGYFDY	not detected	0 of 3	1 of 9

A selection of 10 entries from above:

CDR-H1	CDR-H2	CDR-H3	Kd	replicates with signal	control signals
GFTFDDYAMH	GIPWNSGSIGYHDSVK	RGRGGGYFDY	not detected	0 of 3	1 of 9
GPTFDDYAMH	GIQWNSGSIGYADSVK	VGRGGGYFLY	not detected	0 of 3	2 of 9
GFTFNDYAMH	GIHWNSGSIGYADSVK	VGRGGGYHDY	not detected	0 of 3	0 of 9
GFTFDDYAMH	GITWNSGSIGYADSVK	VGRGGGNFDY	33 µM	3 of 3	4 of 9
GRTFDDYAMH	GIAWNSGSIGYTDSVK	VGRGGGYFDY	520 nM	3 of 3	1 of 9
GFTFDDYAMH	GITWNSGSLGYTDSVK	VGRGGGYFDY	690 µM	1 of 3	3 of 9
GFTFDFYAMH	GIYWNSGGIGYADSVK	VGRGGGYFDY	not detected	0 of 3	2 of 9
GFTFDDYAMH	GIGWNSGSIGYADVVK	VGRFGGYFDY	1.9 µM	3 of 3	4 of 9
GFTFDDYAMW	GIAWNSGSIGYADSVK	VGRVGGYFDY	84 µM	2 of 3	2 of 9
GFTFDDYAMH	GIGWNSGSIPYADSVN	VGRGGGYFDY	not detected	0 of 3	0 of 9